An excerpt weighted towards active compounds, which were near 0.46% of everything screened.
HCMV UL50-53 inh – inhibitors of HCMV UL50-UL53 nuclear egress complex interaction. HTRF UL50-UL53 interaction, normalized percent inhibition. inhibition, % (test concentration not listed). 0.15% of 190,000 active. AID 1918969; in the data active means inhibition above about 27%, passing the limit was not always enough
GIV Gai3 FP – inhibitors of GIV peptide binding to Galpha-i3, primary screen, biochemical, fluorescence polarization, FITC-GIV GBA peptide, rat Galphai3; 90 min; stronger effect = lower value; scaled: aluminum fluoride 0%, vehicle 100%; percent of control (FP), % (test concentration not listed); 0.42% of 210,000 active; AID 1224905, 2016;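 active = replicate mean at 85% of control or lower, very high polarization wells dropped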;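 also: wells of about 15 µL received 100 nL stock; the first replicate is given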
GIV-Gai FP conf – confirmation of inhibitors of GIV binding to rat Galpha-i3 | fluorescence polarization, mP at 100 µM | FITC-GIV peptide binding to Galphai3, fluorescence polarization; active compounds read low | shares compounds with GIV Gai3 FP | AID 1259350 | 38% of 580 active;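 active means inhibition score of 15 or more, meaning 100 minus mean polarization as percent of control over three replicates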;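 further: lower mP means peptide displaced from Galphai3 so more inhibition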
GIV-Gai AS conf – GIV-Galpha-i3 inhibition, AlphaScreen confirmation; shares compounds with GIV Gai3 FP; AlphaScreen Galphai3-GIV binding, purified proteins, 90 min; active compounds read low; AlphaScreen counts at 100 µM; 39% of 580 active; AID 1259351;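 active means inhibition score at or above a set limit, where the score is 100 minus the three-replicate mean percent of control signal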
Of the large screens only hits and unclear results are named; the others gave an inactive call (follow-up assays come after a bar, where they were run).

Fc1ccc(-c2nn3c(-c4ccccn4)nnc3s2)cc1	none
CCNC(=O)CN1C(=O)C2CCCCN2c2ccc(S(=O)(=O)N(CC)CC)cc21 (configuration not stated)	none
COC(=O)c1ccc(N2CCN(C)CC2)c(NC(=O)COc2ccc(Cl)cc2)c1	none (no result: HCMV UL50-53 inh)
CC(C)n1cnc2nc(CSc3ccc(NC(=O)COc4ccccc4F)cc3)cc(=O)n21	none
Cc1ccc(-c2csc(-n3[nH]c(C)c(CC(=O)N4CCCC4)c3=O)n2)cc1	none
CC(=O)Nc1cccc(SSc2cccc(NC(C)=O)c2)c1	none
Nc1c2c(nn1-c1ccccc1)CC(=O)NC2=O	HCMV UL50-53 inh 71, GIV Gai3 FP 60 | GIV-Gai FP conf 47 | GIV-Gai AS conf 31739
O=C1CN(c2ccccc2)C(=O)N1	none (no result: HCMV UL50-53 inh)
O=C(CN1C(=O)C2CC=CCC2C1=O)NCc1cccc(C(F)(F)F)c1 (configuration not stated)	none (no result: GIV Gai3 FP)
Cc1ccc(C2C=C(c3ccccc3)Nc3nc(NS(=O)(=O)c4ccc(C)cc4)nn32)cc1 (configuration not stated)	none (no result: HCMV UL50-53 inh)
CS(=O)(=O)Nc1nc2n(n1)C(c1ccccc1)C=C(c1ccccc1)N2 (configuration not stated)	GIV Gai3 FP 53 (no result: HCMV UL50-53 inh) | GIV-Gai FP conf 44 | GIV-Gai AS conf inactive
O=C(c1sc2ccccc2c1Cl)N1CCc2ccccc21	none (no result: GIV Gai3 FP)
Nc1c(C(=O)N2CCc3ccccc32)sc2nc(C(F)(F)F)c3c(c12)CCCC3	none (no result: HCMV UL50-53 inh) | GIV-Gai FP conf inactive | GIV-Gai AS conf inactive
COc1ccc(-c2nn3c(N4CCN(C)CC4)cc(C)nc3c2C)cc1OC	none
Cc1ccc(S(=O)(=O)/N=C/c2ccccc2O)cc1	none
CN(C)c1ccc(-c2nc3c([nH]2)c(=O)n(C)c(=O)n3C)cc1	GIV Gai3 FP 75 (no result: HCMV UL50-53 inh) | GIV-Gai FP conf inactive | GIV-Gai AS conf inactive
Cn1c(=O)c2[nH]c(-c3ccccc3)nc2n(C)c1=O	none
CCS(=O)(=O)N1CCCC(OCc2nc(C)no2)C1 (configuration not stated)	none (no result: HCMV UL50-53 inh)
CCOC(=O)c1c(NC(=O)c2nc(S(=O)(=O)CC)ncc2Cl)sc2c1CCCC2	none
CCCS(=O)(=O)c1ncc(Cl)c(C(=O)Nc2sc3c(c2C(=O)OCC)CCCC3)n1	GIV Gai3 FP 76 | GIV-Gai FP conf inactive | GIV-Gai AS conf inactive
COc1cccc(C(=O)NCCc2csc(C)n2)c1	none
CC1=NN(c2ccc(N)cc2)C(=O)C1	none
CC1=NN(c2ccc3c(S(=O)(=O)O)cc(S(=O)(=O)O)cc3c2)C(=O)C1	GIV Gai3 FP 51 (no result: HCMV UL50-53 inh) | GIV-Gai FP conf 43 | GIV-Gai AS conf 4060
CN=c1scc(-c2cc(C)n(CCC(C)C)c2C)n1C	none (no result: GIV Gai3 FP)
Cc1ccc(Cc2cnc(NC(=O)/C(C#N)=C\c3ccc(-c4ccc([N+](=O)[O-])cc4)o3)s2)cc1	none
CCN1C(C)=C(C)S/C1=C1\SC(=S)N(NC(C)=O)C1=O	none (no result: HCMV UL50-53 inh)
CCN1C(C)=C(C)S/C1=C1\SC(=S)N(C2CCCCC2)C1=O	none | GIV-Gai FP conf inactive | GIV-Gai AS conf inactive
CC(C)(C)c1ccc(C2Nc3ccccc3C(=O)N2c2ccc(Br)cc2)cc1 (configuration not stated)	none (no result: HCMV UL50-53 inh)
Cn1c(CN(c2ccc(F)cc2)S(C)(=O)=O)nnc1SCC(=O)Nc1ccc(F)c(F)c1	none
O=C(CSc1nc(=O)n(Cc2ccncc2)c2c1CCC2)N1CCCc2ccccc21	none (no result: HCMV UL50-53 inh)
COc1ccc(NC(=O)c2sc3nc4c(cc3c2N)CCCCCC4)cc1OC	GIV Gai3 FP 80 | GIV-Gai FP conf inactive | GIV-Gai AS conf inactive
Nc1c(C(=O)Nc2cccc(Cl)c2)sc2nc3c(cc12)CN(Cc1ccccc1)CC3	GIV Gai3 FP 79 | GIV-Gai FP conf inactive | GIV-Gai AS conf inactive
Cc1cccc(NC(=O)c2sc3nc4c(cc3c2N)CN(Cc2ccccc2)CC4)c1	none
COc1ccccc1NC(=O)c1sc2nc3c(cc2c1N)CCCCCC3	none
CC1CCN(C(=O)C2CCN(c3nc4ccccc4n4cccc34)CC2)CC1	none
CNC(=O)c1nn(-c2ccccc2Cl)nc1CO	none
COc1cc(/C=C2\C(=O)N(c3ccc(S(N)(=O)=O)cc3)N=C2C)ccc1OCc1ccccc1	none (no result: HCMV UL50-53 inh)
COc1cc(/C=C2/C(=O)N(c3ccccc3)N=C2C)ccc1OS(=O)(=O)c1ccccc1	HCMV UL50-53 inh 42, GIV Gai3 FP 81 | GIV-Gai FP conf 60 | GIV-Gai AS conf 21149
CCC1(C)Cc2c(C#N)c(N)n(-c3ccccc3)c(=O)c2CO1 (configuration not stated)	none (no result: GIV Gai3 FP)
CC1(C)C=C2C(=NN(c3ccccc3)C(N)=C2C#N)CO1	GIV Gai3 FP 83 | GIV-Gai FP conf inactive | GIV-Gai AS conf inactive
CCC(Sc1nc(N)cc(=O)[nH]1)C(=O)Nc1cccc2ccccc12 (configuration not stated)	none
O=C(NC1CCCCC1)c1sc(=S)n2c1[nH]c(=O)c1ccccc12	none
O=C(NCCc1ccccc1)c1sc(=S)n2c1[nH]c(=O)c1ccccc12	none (no result: HCMV UL50-53 inh) | GIV-Gai FP conf inactive | GIV-Gai AS conf 13551
COc1ccccc1-c1nc2c3ccccc3ncn2n1	none
COc1cccc(-c2nc3c4ccccc4ncn3n2)c1	GIV Gai3 FP 78 | GIV-Gai FP conf inactive | GIV-Gai AS conf inactive
Cc1nnc(NC(=O)CSc2nnc(CNC(=O)c3ccc(S(=O)(=O)N(C)C)cc3)n2-c2ccc(F)cc2)s1	none (no result: HCMV UL50-53 inh)
O=C(NCCn1c(-c2ccc(F)cc2)nc2cccnc21)c1cccnc1	none
COc1ccc(-c2csc(Cc3nc(-c4ccc(Cl)cc4)no3)n2)cc1	none (no result: HCMV UL50-53 inh)
Nc1cc(N)c2cc(-c3ccccc3)oc2c1	HCMV UL50-53 inh 95, GIV Gai3 FP 81 | GIV-Gai FP conf inactive | GIV-Gai AS conf inactive
O=c1cc(-c2ccccc2)oc2cc(Cl)ccc12	none (no result: GIV Gai3 FP)
NS(=O)(=O)c1ccc(C(=O)Nc2cccc(-c3ccc4nncn4n3)c2)cc1	none
COc1ccc(NC(=S)Nc2ccc(N3CCOCC3)c3nonc23)cc1OC	GIV Gai3 FP 72 | GIV-Gai FP conf 56 | GIV-Gai AS conf 23631
O=C(Nc1ccc(N2CCOCC2)c2nonc12)c1cccs1	none
CN(C)C(=O)COC(=O)c1cccc(S(=O)(=O)N2CCN(c3ccccc3)CC2)c1	none (no result: GIV Gai3 FP)
CCc1c(C)c(C#N)c2nc3ccccc3n2c1N1CCCC1	none
CCc1c(C)c(C#N)c2nc3ccccc3n2c1-n1nc(C)cc1C	none | GIV-Gai FP conf inactive | GIV-Gai AS conf inactive
CCN1C(=O)c2cc(C(=O)NCCC3=CCCCC3)nn2CC1(C)C(=O)NC1CCCC1 (configuration not stated)	none
CC(=O)NCc1ccc(C(=O)CSc2nnc(-c3cccc(F)c3)n2N)o1	none (no result: GIV Gai3 FP)
CCC(c1nnc(Sc2nc(C)nc3sc4c(c23)CCCC4)n1CCN1CCOCC1)N(C)C (configuration not stated)	none (no result: GIV Gai3 FP)
CCc1cccc(NC(=O)c2cc3c(=O)n(Cc4ccc(OC)cc4)ccc3nc2C)c1	none (no result: HCMV UL50-53 inh) | GIV-Gai FP conf inactive | GIV-Gai AS conf inactive
COc1ccc(Cn2ccc3nc(C)c(C(=O)Nc4cc(OC)cc(OC)c4)cc3c2=O)cc1	none
COc1ccccc1NC(=O)c1c(N=Cc2c(O)ccc3ccccc23)cnn1C	none (no result: HCMV UL50-53 inh)
Oc1ccc2ccccc2c1C=Nc1cccn2cc(-c3ccccc3)nc12	GIV Gai3 FP -9.9 (no result: HCMV UL50-53 inh) | GIV-Gai FP conf 9.8 | GIV-Gai AS conf inactive

Screens (PubChem BioAssay)
